{
  "sequences": {"note": "Chains of the proteins cited; added tags and fusions are not shown. Residues count along the entry.", "UniProt Q9H7E2, 520-633": "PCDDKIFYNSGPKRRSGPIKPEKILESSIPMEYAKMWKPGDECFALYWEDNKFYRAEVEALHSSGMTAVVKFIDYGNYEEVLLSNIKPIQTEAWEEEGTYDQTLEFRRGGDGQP"},
  "source": "paper PMC3281842",
  "about": "“Crystal Structure of TDRD3 and Methyl-Arginine Binding Characterization of TDRD3, SMN and SPF30” (PLoS ONE, 2012)",
  "details_in_all_cases": "fluorescein-labeled peptide, 20 mM Tris pH 7.5, 50 mM NaCl, 1 mM DTT, 0.01% Triton X-100, 25°C, average of three independent measurements, NB = no detectable binding",
  "key": {"TDRD3 (aa 520–633)": {"target": "T1, TDRD3 (aa 520–633) (Homo sapiens, UniProt Q9H7E2)", "T1 construct": "TDRD3 (aa 520–633); His tag (pET28-MHL) (N); made in house; host or cells: Escherichia coli BL21 (DE3)", "assay": "Fluorescence polarization binding assay, TDRD3 Tudor domain", "experimental": "TDRD3 contains a Tudor domain at its C-terminus. […] In order to characterize its binding specificity and affinity quantitatively, we performed a series of fluorescence polarization (FP) binding assays using our fluorescein-labeled peptide library, which includes GAR motif-containing SmD3 and PIWIL1 peptides, PGM motif-containing SmB peptides, and histone H3R2 peptides (Table 1 and Fig. 1). A low salt concentration (50 mM NaCl) is used in the FP binding assay due to the weak binding affinities of these proteins to their ligands. […]\nFigure 1 Fluorescence polarization binding curves of TDRD3 (aa 520–633), SMN (aa 80–170), and SPF30 (aa 65–150) to the PIWIL1-R4 peptides. The buffer used in the fluorescence polarization assay is 20 mM Tris pH 7.5, 50 mM NaCl, 1 mM DTT and 0.01% Triton X-100. The data are measured at 25°C and corrected for background by subtracting the free-labeled peptide background. […]\nAll the regular and fluorescent peptides used this study were synthesized by Tufts University Core Services (Boston, USA). The fluorescence polarization assay was carried out as described before. The buffer used in the fluorescence polarization assay is 20 mM Tris pH 7.5, 50 mM NaCl, 1 mM DTT and 0.01% Triton X-100. […] The data are measured at 25°C and corrected for background by subtracting the free-labeled peptide background. […]"}, "SMN (aa 80–170)": {"target": "T2, SMN (aa 80–170) (Homo sapiens, UniProt Q16637)", "T2 construct": "SMN (aa 80–170); His tag (pET28-MHL) (N); made in house; host or cells: Escherichia coli BL21 (DE3)", "assay": "Fluorescence polarization binding assay, SMN Tudor domain", "experimental": "(§1) Figure 1 Fluorescence polarization binding curves of TDRD3 (aa 520–633), SMN (aa 80–170), and SPF30 (aa 65–150) to the PIWIL1-R4 peptides. The buffer used in the fluorescence polarization assay is 20 mM Tris pH 7.5, 50 mM NaCl, 1 mM DTT and 0.01% Triton X-100. The data are measured at 25°C and corrected for background by subtracting the free-labeled peptide background. The Kd values are the average of three independent measurements.\n(§2) All the regular and fluorescent peptides used this study were synthesized by Tufts University Core Services (Boston, USA). The fluorescence polarization assay was carried out as described before. The buffer used in the fluorescence polarization assay is 20 mM Tris pH 7.5, 50 mM NaCl, 1 mM DTT and 0.01% Triton X-100. An excitation wavelength of 485 nm and an emission wavelength of 528 nm are used. The data are measured at 25°C and corrected for background by subtracting the free-labeled peptide background. The data were collected by the Synergy 2 (BioTec, USA) fluorescence polarization program and were fit to one-site binding model using Origin 7 (MicroCal, Inc.). The Kd values are the average of three independent measurements."}, "SPF30 (aa 65–150)": {"target": "T3, SPF30 (aa 65–150) (Homo sapiens, UniProt O75940)", "T3 construct": "SPF30 (aa 65–150); His tag (pET28-MHL) (N); made in house; host or cells: Escherichia coli BL21 (DE3)", "T3 sequence (O75940 65-150)": "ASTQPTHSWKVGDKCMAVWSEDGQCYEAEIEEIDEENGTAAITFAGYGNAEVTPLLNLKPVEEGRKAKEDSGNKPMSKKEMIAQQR", "assay": "Fluorescence polarization binding assay, SPF30 Tudor domain", "experimental": "as §1, §2"}},
  "data": [
    {"smiles": "C[C@H](NC(=O)[C@H](CCCNC(=N)N)NC(=O)CNC(=O)[C@H](CCCNC(=N)N)NC(=O)[C@H](C)NC(=O)[C@H](CCCNC(=N)N)NC(=O)[C@H](C)NC(=O)[C@H](CCCNC(=N)N)NC(=O)[C@H](C)NC(=O)[C@H](CCCNC(=N)N)NC(=O)CNC(=O)[C@@H](N)[C@@H](C)O)C(=O)N[C@@H](CCCNC(=N)N)C(=O)NCC(=O)N[C@@H](CCC(N)=O)C(=O)N[C@@H](CCC(=O)O)C(=O)O", "note": "[PIWIL1-R4un]", "values": [
      {"measurement": "Kd", "setting": "TDRD3 (aa 520–633)", "value": "> 500", "unit": "µM"},
      {"measurement": "Kd", "setting": "SMN (aa 80–170)", "value": "> 300", "unit": "µM"},
      {"measurement": "Kd", "setting": "SPF30 (aa 65–150)", "value": "> 500", "unit": "µM"}
    ]}
  ]
}
